These results are taken from patent US10214520B2, “Substituted azaspiro(4.5)decane derivatives” (priority 2014, dated 2019).

Chains of the proteins cited; added tags and fusions are not shown.
UniProt P35372, whole entry: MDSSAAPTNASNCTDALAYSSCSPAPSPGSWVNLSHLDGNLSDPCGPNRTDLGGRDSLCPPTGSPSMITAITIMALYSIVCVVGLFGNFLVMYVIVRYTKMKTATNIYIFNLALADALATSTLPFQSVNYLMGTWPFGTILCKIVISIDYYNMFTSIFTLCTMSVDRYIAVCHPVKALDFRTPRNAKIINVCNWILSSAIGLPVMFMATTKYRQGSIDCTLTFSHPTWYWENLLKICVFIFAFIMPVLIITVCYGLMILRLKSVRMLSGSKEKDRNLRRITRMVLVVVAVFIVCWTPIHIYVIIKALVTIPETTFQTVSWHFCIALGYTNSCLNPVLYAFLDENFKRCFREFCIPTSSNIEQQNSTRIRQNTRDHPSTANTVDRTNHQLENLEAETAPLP
UniProt P41146, whole entry: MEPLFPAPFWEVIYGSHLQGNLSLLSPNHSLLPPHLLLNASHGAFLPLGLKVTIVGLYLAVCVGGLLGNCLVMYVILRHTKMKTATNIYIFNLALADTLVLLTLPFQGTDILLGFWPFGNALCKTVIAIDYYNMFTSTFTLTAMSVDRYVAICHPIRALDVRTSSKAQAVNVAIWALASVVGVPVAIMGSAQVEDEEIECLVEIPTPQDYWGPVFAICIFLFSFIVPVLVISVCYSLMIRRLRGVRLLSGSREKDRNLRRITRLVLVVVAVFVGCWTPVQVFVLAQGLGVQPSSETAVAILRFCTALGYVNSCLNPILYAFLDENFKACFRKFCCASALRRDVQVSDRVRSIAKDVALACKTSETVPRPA

A word on the pKi: it is the negative decadic logarithm of the Ki, by convention in mol/L.

One assay addresses human μ opiate receptor (Homo sapiens, UniProt P35372). Nature of the assay: μ opiate receptor binding assay with [3H]-naloxone, membrane preparation of CHO-K1 cells (WGA-SPA beads). The settings on record: for % inhibition (μ) [1 μM] / MOP % Inhibition @1 μM: test concentration 1 μM.
The next assay has as its target ORL1 receptor (Homo sapiens, UniProt P41146). Kind of assay: ORL1 receptor binding assay with 3H-nociceptin/orphanin FQ, membranes from recombinant CHO-ORL1 cells (WGA-SPA beads). The settings on record: for % inhibition (ORL1) [1 μM] / ORL1 % Inhibition @ 1 μM: test concentration 1 μM.
For assay [1], the system named is Female Sprague Dawley rats. Kind of assay: Analgesia in the tail flick (focal ray) test in rats, intravenous administration. The settings on record: @100 μg/kg.
[2] abbreviates: read-out: Ki (μ) mean [μm], mean.
The mark [3] stands for this setting: read-out: Ki (ORL1) mean [μm], mean.

The structures appear in SMILES notation. pKi: −log10 of the molar value. Where two headings read alike, the source gives them in different places.

Regarding `CN(C)C1(c2ccccc2)CCC2(CC1)CC(=O)N(Cc1ccc(F)s1)C2` (stereo not shown), the pKi on human μ opiate receptor (setting [2]) and at ORL1 receptor (setting [3]) was 9.05 throughout. Also, the “% inhibition (μ) [1 μM]” value at human μ opiate receptor is on record as 98%. Besides, the “% inhibition (ORL1) [1 μM]” value at ORL1 receptor was 97%.

For the compound `COc1ccccc1CCC(=O)N1CCC2(CCC(c3ccccc3)(N(C)C)CC2)C1` (stereo not shown), the pKi at human μ opiate receptor (read-out: MOP Ki) was 9.22; on ORL1 receptor (read-out: ORL1 Ki) it was 8.66. Also, at human μ opiate receptor, the “MOP % Inhibition @1 μM” value turned out to be 99%. For the same compound, the “ORL1 % Inhibition @ 1 μM” value at ORL1 receptor is 88%.

In the case of `CN(C)[C@]1(c2ccccc2)CC[C@]2(CC1)CC(=O)N(CC(=O)NCCc1ccccc1)C2`, the negative logarithm of the Ki (pKi) at human μ opiate receptor (read-out: MOP Ki) was 9.05; at ORL1 receptor (read-out: ORL1 Ki), 8.59. For the same compound, the “MOP % Inhibition @1 μM” value on human μ opiate receptor worked out at 98%. On ORL1 receptor, the “ORL1 % Inhibition @ 1 μM” value is 98%.

With `CN(C)C1(c2ccccc2)CCC2(CCN(C(=O)Cc3ccccn3)C2)CC1` (stereo not shown), the negative logarithm of the Ki (pKi) at human μ opiate receptor (read-out: MOP Ki) was 9.05; at ORL1 receptor (read-out: ORL1 Ki), 8.89. The “MOP % Inhibition @1 μM” value on human μ opiate receptor is 100%. Also, at ORL1 receptor, the “ORL1 % Inhibition @ 1 μM” value was 95%.

Regarding `Cc1ccc(C(=O)N2CCC3(CCC(c4cccs4)(N(C)C)CC3)C2)s1` (stereo not shown), the values for the pKi on human μ opiate receptor (setting [2]) and on ORL1 receptor (setting [3]) were 9.38 and 8.85, respectively. Further, on human μ opiate receptor, the “% inhibition (μ) [1 μM]” value amounted to 100.67%. Further, the “Tail flick rat, i.v. % MPE (@μg/kg)” value in assay [1] is 100%@100 % MPE. Further, on ORL1 receptor, the “% inhibition (ORL1) [1 μM]” value is given as 94.5%.

Take `Cc1ccc(C(=O)N2CCC3(CCC(c4ccccc4)(N(C)C)CC3)C2)s1` (stereo not shown): the pKi at human μ opiate receptor (setting [2]) was 9.17; at ORL1 receptor (setting [3]), 8.89. Besides, on human μ opiate receptor, the “% inhibition (μ) [1 μM]” value is 100%. The “% inhibition (ORL1) [1 μM]” value at ORL1 receptor was determined as 97.5%.

For the compound `CN(C)C1(c2cccs2)CCC2(CCN(Cc3cccs3)C2)CC1` (stereo not shown), the negative-log Ki (pKi) at human μ opiate receptor (setting [2]) is 9.08; at ORL1 receptor (setting [3]) it was 9.28. Also, the “% inhibition (μ) [1 μM]” value at human μ opiate receptor worked out at 99.5%. Also, the “% inhibition (ORL1) [1 μM]” value at ORL1 receptor turned out to be 97.5%.

Regarding `CN(C)C1(c2cccs2)CCC2(CCN(C(=O)c3ccc(F)s3)C2)CC1` (stereo not shown), the results for the pKi on human μ opiate receptor (setting [2]) and on ORL1 receptor (setting [3]) were 9.55 and 9.36, respectively. Also, the “% inhibition (μ) [1 μM]” value on human μ opiate receptor turned out to be 103%. For the same compound, the “% inhibition (ORL1) [1 μM]” value on ORL1 receptor was determined as 95%.

With `CN(C)C1(c2ccccc2)CCC2(CCN(C(=O)c3ccc(F)s3)C2)CC1` (stereo not shown), the pKi at human μ opiate receptor (setting [2]) is 9.07; on ORL1 receptor (setting [3]), 8.96. Besides, on human μ opiate receptor, the “% inhibition (μ) [1 μM]” value worked out at 98.5%. Further, the “% inhibition (ORL1) [1 μM]” value on ORL1 receptor was found to be 96.5%.

Turning to `Cc1ccc(CN2CCC3(CCC(c4cccs4)(N(C)C)CC3)C2)s1` (stereo not shown), the pKi at human μ opiate receptor (setting [2]) is 9.24; at ORL1 receptor (setting [3]), 9.31. Moreover, the “% inhibition (μ) [1 μM]” value on human μ opiate receptor is 101%. Also, in assay [1], the “Tail flick rat, i.v. % MPE (@μg/kg)” value was 11%@100 % MPE. Besides, on ORL1 receptor, the “% inhibition (ORL1) [1 μM]” value is recorded as 97%.

Regarding `CN(C)C1(c2cccs2)CCC2(CCN(C(=O)c3cccs3)C2)CC1` (stereo not shown), the figures for the pKi on human μ opiate receptor (setting [2]) and on ORL1 receptor (setting [3]) were 9.36 and 9.09, respectively. For the same compound, the “% inhibition (μ) [1 μM]” value on human μ opiate receptor is 98.5%. Further, on ORL1 receptor, the “% inhibition (ORL1) [1 μM]” value stood at 97%.
